This is an account of results in patent publication US10392369B2, “N-[(pyrimidinyloxy)propanyl]benzamides” (Boehringer Ingelheim International GmbH, priority 2016, dated 2019).

Sequences of proteins named here, by UniProt entry; tags and fusion partners are left off.
UniProt O43613, whole entry, species assumed: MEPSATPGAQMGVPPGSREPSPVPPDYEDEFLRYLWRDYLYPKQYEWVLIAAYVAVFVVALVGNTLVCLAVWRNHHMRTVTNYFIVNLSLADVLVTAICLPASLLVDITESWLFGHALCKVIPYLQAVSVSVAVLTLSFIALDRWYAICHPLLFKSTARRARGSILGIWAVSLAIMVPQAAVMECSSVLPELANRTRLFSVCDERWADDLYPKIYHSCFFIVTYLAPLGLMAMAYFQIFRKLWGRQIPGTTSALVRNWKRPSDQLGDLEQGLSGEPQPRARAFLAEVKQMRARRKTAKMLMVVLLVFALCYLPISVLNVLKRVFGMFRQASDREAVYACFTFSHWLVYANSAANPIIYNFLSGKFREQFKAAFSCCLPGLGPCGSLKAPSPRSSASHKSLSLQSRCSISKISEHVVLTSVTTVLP

The target of the test is OX1R (Homo sapiens, UniProt O43613). Put plainly: OX1R assay of WO2013/187466 (fluorescence measurement of intracellular Ca2+ changes). Format: cell-based. To be noted: selectivity ratio, as described in WO2013/187466.

As to `CCN(C(=O)c1cc(F)ccc1-c1ncccn1)[C@@H](C)Cn1nnc(-c2ccc(F)cc2)n1`, the “OX2R IC50/OX1R IC50” value turned out to be 411.
